{"sequences": {"note": "Chains of the proteins cited; added tags and fusions are not shown.", "UniProt Q6W5P4, whole entry": "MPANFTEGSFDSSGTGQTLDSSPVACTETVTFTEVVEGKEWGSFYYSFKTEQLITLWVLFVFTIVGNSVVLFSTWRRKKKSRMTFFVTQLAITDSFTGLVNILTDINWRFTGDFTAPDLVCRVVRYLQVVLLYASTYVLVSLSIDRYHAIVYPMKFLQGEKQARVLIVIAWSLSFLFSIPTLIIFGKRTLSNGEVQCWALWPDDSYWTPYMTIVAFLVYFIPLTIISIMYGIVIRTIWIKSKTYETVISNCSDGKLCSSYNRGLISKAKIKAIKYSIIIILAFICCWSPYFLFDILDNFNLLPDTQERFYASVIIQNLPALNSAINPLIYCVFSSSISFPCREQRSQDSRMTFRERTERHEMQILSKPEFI"}, "source": "PubChem BioAssay AID1461", "about": "(National Center for Advancing Translational Sciences (NCATS), 2008)", "note": "The entries are a selection whose mix differs from that of the whole data set. Records with an inconclusive call do not appear. The source made the active and inactive calls. Calls come from the whole dose curve; as a rule, active = well fitted inhibition curve with a large enough effect; inconclusive = small, poorly fitted or top-dose-only effect, or effect the other way; inactive = no such curve, though single readings can be large or run the other way. % is set by controls: 0 for no effect and ±100 for the full control effect; potency is the fitted concentration of half-maximal effect."}
{"molecular_target": "Neuropeptide S receptor (Homo sapiens) (UniProt Q6W5P4)", "assay": "qHTS Assay for Antagonists of the Neuropeptide S Receptor: cAMP Signal Transduction; note: nearly all actives have a fitted effect of over 50% in size", "details": "CHO-NPSR cells, cAMP TR-FRET, antagonist mode; series mostly up to 38.3 µM; activity change, negative = inhibition: at the top concentration"}
{"smiles": "CCN(CC)CCCOC(=O)C(O)(c1ccccc1)C1CCCCC1", "note": "(stereo not drawn)", "activity change, negative = inhibition": "inactive: -7.21% [at 46.1 µM]"}
{"smiles": "CP(=O)(Nc1ccccc1)Oc1ccc(F)cc1", "note": "(stereo not drawn)", "activity change, negative = inhibition": "inactive: 1.54% [at 46.1 µM]"}
{"smiles": "CCCCCOc1ccc(NP(C)(=O)Oc2ccc(Cl)cc2Cl)cc1", "note": "(stereo not drawn)", "activity change, negative = inhibition": "inactive: -57.9%"}
{"smiles": "CCOC(=O)c1ccc(NP(C)(=O)Oc2ccc(F)cc2)cc1", "note": "(stereo not drawn)", "activity change, negative = inhibition": "inactive: 7.22%"}
{"smiles": "COc1ccc(OP(C)(=O)Nc2ccc(SC(F)(F)F)cc2)cc1", "note": "(stereo not drawn)", "activity change, negative = inhibition": "inactive: -11.6%"}
{"smiles": "O=C(OCCN1CCN(CCOCc2ccccc2)CC1)C(O)(c1ccccc1)c1ccccc1", "activity change, negative = inhibition": "inactive: 7.25%"}
{"smiles": "CP(=O)(Nc1ccccc1F)Oc1ccccc1", "note": "(stereo not drawn)", "activity change, negative = inhibition": "inactive: -18.2% [at 46.1 µM]"}
{"smiles": "CC(C)c1ccc(OP(C)(=O)Nc2ccc(SC(F)(F)F)cc2)cc1", "note": "(stereo not drawn)", "activity change, negative = inhibition": "inactive: -31.9%"}
{"smiles": "Cc1ccccc1NP(C)(=O)Nc1ccccc1C", "activity change, negative = inhibition": "inactive: 1.42% [at 46.1 µM]"}
{"smiles": "CP(=O)(Nc1ccc(SC(F)(F)F)cc1)Oc1ccc(F)cc1", "note": "(stereo not drawn)", "activity change, negative = inhibition": "inactive: -5.72%"}
{"smiles": "CCOP(C)(=S)SCC(=O)NC(C)(CC)C(=O)O", "note": "(stereo not drawn)", "activity change, negative = inhibition": "inactive: 0.418% [at 46.1 µM]"}
{"smiles": "O=[N+]([O-])c1ccc(OP2(=O)COCCO2)cc1", "note": "(stereo not drawn)", "activity change, negative = inhibition": "inactive: -18.6%"}
{"smiles": "Cc1cc(-c2cccc3ccccc23)c(C)cn1.O=[N+]([O-])c1cc([N+](=O)[O-])c(O)c([N+](=O)[O-])c1", "activity change, negative = inhibition": "inactive: 31.2%"}
{"smiles": "COc1ccc(OP(C)(=O)Nc2cccc(Br)c2)cc1", "note": "(stereo not drawn)", "activity change, negative = inhibition": "inactive: -15% [at 46.1 µM]"}
{"smiles": "CN(C)CCOC(=O)C(O)(c1ccccc1)C1CCCCC1", "note": "(stereo not drawn)", "activity change, negative = inhibition": "inactive: 23.7% [at 46.1 µM]"}
{"smiles": "COc1ccc(NP(C)(=O)Oc2ccccc2OC)cc1", "note": "(stereo not drawn)", "activity change, negative = inhibition": "inactive: 12.8%"}
{"smiles": "CCOC(=O)c1ccc(NP(C)(=O)Oc2ccc(Cl)cc2)cc1", "note": "(stereo not drawn)", "activity change, negative = inhibition": "inactive: -5.27%"}
{"smiles": "CP(=O)(OC12CC3CC(CC(C3)C1)C2)OC12CC3CC(CC(C3)C1)C2", "Potency": "active: 10 µM"}
{"smiles": "CC(C)(C)c1ccc(OP(C)(=O)O)cc1", "activity change, negative = inhibition": "inactive: -8.46% [at 46.1 µM]"}
{"smiles": "COc1ccccc1OP(C)(=O)Nc1ccccc1Br", "note": "(stereo not drawn)", "activity change, negative = inhibition": "inactive: -15%"}
{"smiles": "CP(=O)(Nc1ccc(Cl)cc1)Oc1ccc(F)cc1", "note": "(stereo not drawn)", "activity change, negative = inhibition": "inactive: 0.672% [at 46.1 µM]"}
{"smiles": "CN(C)C(=O)c1c([N+](=O)[O-])cc([N+](=O)[O-])cc1[N+](=O)[O-]", "activity change, negative = inhibition": "inactive: -7.51%"}
{"smiles": "COc1ccc(OP(C)(=O)Nc2ccc(Br)cc2)cc1", "note": "(stereo not drawn)", "activity change, negative = inhibition": "inactive: 5.99%"}
{"smiles": "CCN(CC)CC(O)COC(=O)C(O)(c1ccccc1)C1CCCCC1", "note": "(stereo not drawn)", "activity change, negative = inhibition": "inactive: 3.53% [at 46.1 µM]"}
{"smiles": "N#[O+].[C-]#N.[C-]#N.[C-]#N.[C-]#N.[C-]#N.[Fe+2].[Na+].[Na+]", "activity change, negative = inhibition": "inactive: 3.44% [at 46.1 µM]"}
{"smiles": "O=C(OCCCN1CCCC1)C(O)(c1ccccc1)C1CCCCC1", "note": "(stereo not drawn)", "activity change, negative = inhibition": "inactive: 17.1%"}
{"smiles": "COc1ccccc1OP(C)(=O)Nc1c(C)n(C)n(-c2ccccc2)c1=O", "note": "(stereo not drawn)", "activity change, negative = inhibition": "inactive: 1.22% [at 46.1 µM]"}
{"smiles": "CCc1ccc(OP(C)(=O)Nc2cccnc2)cc1", "note": "(stereo not drawn)", "activity change, negative = inhibition": "inactive: 6.44%"}
{"smiles": "CP(=O)(Oc1ccccc1)N1CCOC1=O", "note": "(stereo not drawn)", "activity change, negative = inhibition": "inactive: -12.8% [at 46.1 µM]"}
{"smiles": "O=[N+]([O-])c1cc([N+](=O)[O-])c(Nc2ccccn2)c([N+](=O)[O-])c1", "activity change, negative = inhibition": "inactive: 30.3%"}
{"smiles": "Cc1c(NP(C)(=O)Oc2ccc(C(C)C)cc2)c(=O)n(-c2ccccc2)n1C", "note": "(stereo not drawn)", "activity change, negative = inhibition": "inactive: -6.45% [at 46.1 µM]"}
{"smiles": "COc1ccccc1OP(C)(=O)Nc1ccc(C)cc1C", "note": "(stereo not drawn)", "activity change, negative = inhibition": "inactive: -12.3% [at 46.1 µM]"}
{"smiles": "CP(=O)(Nc1ccccn1)Oc1ccccc1", "note": "(stereo not drawn)", "activity change, negative = inhibition": "inactive: 6.65% [at 46.1 µM]"}
{"smiles": "CCc1ccc(OP(C)(=O)O)cc1", "activity change, negative = inhibition": "inactive: -0.848% [at 46.1 µM]"}
{"smiles": "COc1ccccc1OP(C)(=O)Nc1ccc(Br)cc1", "note": "(stereo not drawn)", "activity change, negative = inhibition": "inactive: -2.58%"}
{"smiles": "COc1ccc(OP(C)(=O)Nc2ccccn2)cc1", "note": "(stereo not drawn)", "activity change, negative = inhibition": "inactive: 3.17% [at 46.1 µM]"}
{"smiles": "CN(C)CCOC(=O)C(O)(c1ccccc1)C1CCCC1", "note": "(stereo not drawn)", "activity change, negative = inhibition": "inactive: 8.71% [at 46.1 µM]"}
{"smiles": "Cc1nc2ccc3ccccc3c2o1.O=[N+]([O-])c1cc([N+](=O)[O-])c(O)c([N+](=O)[O-])c1", "activity change, negative = inhibition": "inactive: -2.73% [at 46.1 µM]"}
{"smiles": "CP(=O)(OCCOc1ccccc1)OCCOc1ccccc1", "activity change, negative = inhibition": "inactive: 0.901%"}
{"smiles": "CP(=O)(Nc1ccc(Cl)cc1Cl)Oc1ccccc1", "note": "(stereo not drawn)", "activity change, negative = inhibition": "inactive: -10%"}
{"smiles": "Cc1cc(C)cc(OP(C)(=O)Nc2cccc(C(F)(F)F)c2)c1", "note": "(stereo not drawn)", "activity change, negative = inhibition": "inactive: 19.3%"}
{"smiles": "COc1ccccc1OP(C)(=O)Nc1ccc(C)c(C)c1", "note": "(stereo not drawn)", "activity change, negative = inhibition": "inactive: -11.9% [at 46.1 µM]"}
{"smiles": "COc1ccc(OP(C)(=O)Nc2ccccc2Br)cc1", "note": "(stereo not drawn)", "activity change, negative = inhibition": "inactive: 27.5%"}
{"smiles": "Cc1ccc(NP(C)(=O)Oc2ccccc2)c(C)c1", "note": "(stereo not drawn)", "activity change, negative = inhibition": "inactive: -18% [at 46.1 µM]"}
{"smiles": "COc1ccccc1OP(C)(=O)Nc1ccc(C)cc1", "note": "(stereo not drawn)", "activity change, negative = inhibition": "inactive: 14.9% [at 46.1 µM]"}
{"smiles": "CCOC(=O)c1ccc(NP(C)(=O)Oc2ccccc2)cc1", "note": "(stereo not drawn)", "activity change, negative = inhibition": "inactive: 2.96%"}
{"smiles": "Cc1cc(C)cc(OP(C)(N)=O)c1", "note": "(stereo not drawn)", "activity change, negative = inhibition": "inactive: 22.9%"}
{"smiles": "COc1ccc(OP(C)(=O)Nc2cccc(F)c2)cc1", "note": "(stereo not drawn)", "activity change, negative = inhibition": "inactive: -2.4% [at 46.1 µM]"}
{"smiles": "COc1ccccc1OP(C)(=O)Nc1cc(Cl)ccc1C", "note": "(stereo not drawn)", "activity change, negative = inhibition": "inactive: -2.79%"}
{"smiles": "O=[N+]([O-])c1ccc2c(c1)C=Nc1ccccc1O2", "activity change, negative = inhibition": "inactive: 12.5%"}
{"smiles": "Cc1cccc(C)c1OP(C)(N)=O", "note": "(stereo not drawn)", "activity change, negative = inhibition": "inactive: 15.5%"}
{"smiles": "CC(C)(C)c1ccc(OP(C)(=O)Nc2ccc(SC(F)(F)F)cc2)cc1", "note": "(stereo not drawn)", "activity change, negative = inhibition": "inactive: -36.7%"}
{"smiles": "CCN(CC)CCCOC(=O)C(O)(c1ccccc1)c1ccccc1", "activity change, negative = inhibition": "inactive: 1.54%"}
{"smiles": "CCOC(=O)c1ccc(NP(C)(=O)Oc2ccc(OC)cc2)cc1", "note": "(stereo not drawn)", "activity change, negative = inhibition": "inactive: 16%"}
{"smiles": "CCOP(C)(=S)SCC(=O)NC(C)C(=O)O", "note": "(stereo not drawn)", "activity change, negative = inhibition": "inactive: -8.75% [at 46.1 µM]"}
{"smiles": "CP(=O)(Nc1ccccn1)Oc1ccc(Cl)cc1", "note": "(stereo not drawn)", "activity change, negative = inhibition": "inactive: 2.17% [at 46.1 µM]"}
{"smiles": "CP(=O)(Oc1ccccc1)OC(c1ccccc1)C(F)(F)F", "note": "(stereo not drawn)", "activity change, negative = inhibition": "inactive: -29.1%"}
{"smiles": "Cc1cccc(C)c1OP(C)(=O)Nc1ccc(SC(F)(F)F)cc1", "note": "(stereo not drawn)", "activity change, negative = inhibition": "inactive: -10.8%"}
{"smiles": "Cc1cc(C)cc(OP(C)(=O)Nc2ccc(SC(F)(F)F)cc2)c1", "note": "(stereo not drawn)", "activity change, negative = inhibition": "inactive: -25.5%"}
{"smiles": "CCc1ccc(OP(C)(=O)N2CCN(c3ccc([N+](=O)[O-])cc3)CC2)cc1", "note": "(stereo not drawn)", "activity change, negative = inhibition": "inactive: -35.3%"}
{"smiles": "CP(=O)(NC(=O)Nc1ccccc1)Oc1ccccc1", "note": "(stereo not drawn)", "activity change, negative = inhibition": "inactive: 14.1% [at 7.67 µM]"}
{"smiles": "CP(=S)(Nn1cnnc1)Oc1ccccc1", "note": "(stereo not drawn)", "activity change, negative = inhibition": "inactive: -6.95% [at 46.1 µM]"}
{"smiles": "CP(=O)(Nc1ccccc1Br)Oc1ccccc1", "note": "(stereo not drawn)", "activity change, negative = inhibition": "inactive: 0.194%"}
{"smiles": "COc1ccccc1OP(C)(=O)Nc1ccccc1", "note": "(stereo not drawn)", "activity change, negative = inhibition": "inactive: 10.2%"}
{"smiles": "CN1CCCCC1COC(=O)C1(O)c2ccccc2CCc2ccccc21", "note": "(stereo not drawn)", "activity change, negative = inhibition": "inactive: 13.8%"}
{"smiles": "COc1ccccc1OP(C)(=O)Nc1c(C)cccc1C", "note": "(stereo not drawn)", "activity change, negative = inhibition": "inactive: -7.57% [at 46.1 µM]"}
{"smiles": "CP(=O)(Nc1ccc(SC(F)(F)F)cc1)Oc1ccccc1", "note": "(stereo not drawn)", "activity change, negative = inhibition": "inactive: 0.0538%"}
{"smiles": "CCCOc1ccc(NP(C)(=O)Oc2ccc(Cl)cc2)cc1", "note": "(stereo not drawn)", "activity change, negative = inhibition": "inactive: -9.29%"}
{"smiles": "O=[N+]([O-])c1cc([N+](=O)[O-])c(Nc2nnnn2CCO)c([N+](=O)[O-])c1", "activity change, negative = inhibition": "inactive: 3.99%"}
{"smiles": "Cc1nc2ccc3ccccc3c2s1.O=[N+]([O-])c1cc([N+](=O)[O-])c(O)c([N+](=O)[O-])c1", "activity change, negative = inhibition": "inactive: -18.4% [at 46.1 µM]"}
{"smiles": "O=[N+]([O-])c1cc([N+](=O)[O-])c(-n2nnc3ccccc32)c([N+](=O)[O-])c1", "activity change, negative = inhibition": "inactive: 2.34%"}
{"smiles": "Cc1ccc(C)c(NP(C)(=O)Oc2ccccc2)c1", "note": "(stereo not drawn)", "activity change, negative = inhibition": "inactive: -18.4% [at 46.1 µM]"}
{"smiles": "CP(=O)(Nc1cccc(Br)c1)Oc1ccccc1", "note": "(stereo not drawn)", "activity change, negative = inhibition": "inactive: -6.04%"}
{"smiles": "Cc1cc(C)cc(OP(C)(=O)Nc2ccccn2)c1", "note": "(stereo not drawn)", "activity change, negative = inhibition": "inactive: 6.63% [at 46.1 µM]"}
{"smiles": "COc1ccccc1OP(C)(=O)Nc1cccc(Br)c1", "note": "(stereo not drawn)", "activity change, negative = inhibition": "inactive: -15.7%"}
{"smiles": "CCOC(=O)c1ccc(NP(C)(=O)Oc2cc(C)cc(C)c2)cc1", "note": "(stereo not drawn)", "activity change, negative = inhibition": "inactive: -10.9%"}
{"smiles": "Cc1cc(C)cc(OP(C)(=O)Nc2ccc(C)cc2C)c1", "note": "(stereo not drawn)", "activity change, negative = inhibition": "inactive: -6.78% [at 46.1 µM]"}
{"smiles": "CC1=NCCc2c1[nH]c1ccccc21.O=[N+]([O-])c1cc([N+](=O)[O-])c(O)c([N+](=O)[O-])c1", "activity change, negative = inhibition": "inactive: -41.5%"}
